# In patent US20110172305A1, “Endocannabinoids for Enhancing Growth and Development in Infants” (priority 2007, published 2011):
# Legend:
# [1] = 'Lapping': food ingestion by licking from a dish, CB1 receptor-blocked pups; format: in vivo, mouse; conditions: pups allowed to lick milk/cream mixture rather than suck
# [2] = Nipple attachment of pups after CB1 receptor blockade; format: in vivo, mouse (Sabra or ICR strain); conditions: pups of Sabra or ICR strain injected s.c. within 24 h of birth; FIG. 4
structure (smiles),measurement,setting,value
Cc1c(C(=O)NN2CCCCC2)nn(-c2ccc(Cl)cc2Cl)c1-c1ccc(Cl)cc1 [Rimonabant],food intake (milkband size) after one session of lapping,[1]; FIG. 5A,completely normalized
same,body weight gain after one session of lapping,[1]; FIG. 5B,completely normalized
same,nipple attachment score (0-2),[2],scored almost zero
